From PMC8219027, “A small-molecule inhibitor of the BRCA2-RAD51 interaction modulates RAD51 assembly and potentiates DNA damage-induced cell death” (Cell Chemical Biology, 2021)

Target: ChimRAD51 (Homo sapiens, UniProt Q06609)
Settings: read-out: Kd by FP against ChimRAD51; competition with labelled BRC4 repeat

Compound	Kd
CSCC[C@H](NC(=O)[C@@H]1CCCN1C(=O)[C@@H](N)C(C)C)C(=O)NCC(=O)N[C@@H](Cc1ccccc1)C(=O)N[C@H](C(=O)N[C@H](C(=O)N[C@@H](C)C(=O)N[C@H](C(=O)N[C@@H](CCC(=O)O)C(=O)N[C@@H](Cc1ccccc1)C(=O)N[C@@H](Cc1c[nH]cn1)C(=O)N[C@@H](CCC(N)=O)C(=O)N[C@@H](CCCNC(=N)N)C(=O)N[C@@H](CCCNC(=N)N)C(=O)N[C@@H](CO)C(=O)O)[C@@H](C)O)[C@@H](C)O)[C@@H](C)O	18 µM
CC(C)C[C@H](NC(=O)[C@H](CC(C)C)NC(=O)[C@@H](NC(=O)[C@@H]1CCCN1)[C@@H](C)O)C(=O)NCC(=O)N[C@@H](Cc1ccccc1)C(=O)N[C@@H](Cc1c[nH]cn1)C(=O)N[C@H](C(=O)N[C@@H](C)C(=O)N[C@@H](CO)C(=O)NCC(=O)N[C@@H](CCCCN)C(=O)N[C@@H](CCCCN)C(=O)N[C@H](C(=O)O)C(C)C)[C@@H](C)O	36 µM
